The record followed here is ChEMBL document CHEMBL4052642, “4-Methyl-6,7-dihydro-4H-triazolo[4,5-c]pyridine-Based P2X7 Receptor Antagonists: Optimization of Pharmacokinetic Properties Leading to the Identification of a Clinical Candidate” (J Med Chem, 2017).

By UniProt entry, the sequences of proteins in these tests, tags left out. Where a name states a change or a piece, a line headed by the entry shows the natural chain unless it says otherwise.
UniProt Q99572: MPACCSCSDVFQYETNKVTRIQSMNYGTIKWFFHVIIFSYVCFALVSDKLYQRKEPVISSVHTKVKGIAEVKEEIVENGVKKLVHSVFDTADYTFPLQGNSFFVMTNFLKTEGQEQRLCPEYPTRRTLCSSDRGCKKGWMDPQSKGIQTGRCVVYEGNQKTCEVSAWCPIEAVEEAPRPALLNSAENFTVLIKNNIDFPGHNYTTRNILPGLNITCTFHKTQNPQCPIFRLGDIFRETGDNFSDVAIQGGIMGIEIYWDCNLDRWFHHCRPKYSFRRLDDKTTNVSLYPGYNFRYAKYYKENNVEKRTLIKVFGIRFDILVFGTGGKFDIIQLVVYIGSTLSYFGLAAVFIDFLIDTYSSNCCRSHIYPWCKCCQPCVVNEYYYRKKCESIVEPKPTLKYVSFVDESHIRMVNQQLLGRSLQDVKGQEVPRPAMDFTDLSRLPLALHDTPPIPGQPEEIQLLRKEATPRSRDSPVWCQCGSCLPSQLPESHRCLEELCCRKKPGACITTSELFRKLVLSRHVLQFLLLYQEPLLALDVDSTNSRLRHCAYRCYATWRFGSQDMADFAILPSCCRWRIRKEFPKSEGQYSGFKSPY

What is called Ki is the equilibrium dissociation constant of an inhibitor or competing ligand from its target. A word on the IC50: it is the concentration needed to halve the response being measured.

Assay [1] addresses P2X purinoceptor 7 (Homo sapiens, UniProt Q99572). The experiment in a line: Antagonist activity at recombinant human P2X7 expressed in human 1321N1 cells assessed as inhibition of BzATP-induced calcium flux preincubated for 30 mins followed by BzATP addition measured over 180 secs by FLIPR assay. The assay is classed as cell-based. In general terms: Calcium assays in cells follow changes in intracellular calcium, usually with a dye or a luminescent sensor.

Assay [2] has as its target T1, P2X purinoceptor 7 (Rattus norvegicus, UniProt Q64663).
T1 sequence (Q64663 whole entry): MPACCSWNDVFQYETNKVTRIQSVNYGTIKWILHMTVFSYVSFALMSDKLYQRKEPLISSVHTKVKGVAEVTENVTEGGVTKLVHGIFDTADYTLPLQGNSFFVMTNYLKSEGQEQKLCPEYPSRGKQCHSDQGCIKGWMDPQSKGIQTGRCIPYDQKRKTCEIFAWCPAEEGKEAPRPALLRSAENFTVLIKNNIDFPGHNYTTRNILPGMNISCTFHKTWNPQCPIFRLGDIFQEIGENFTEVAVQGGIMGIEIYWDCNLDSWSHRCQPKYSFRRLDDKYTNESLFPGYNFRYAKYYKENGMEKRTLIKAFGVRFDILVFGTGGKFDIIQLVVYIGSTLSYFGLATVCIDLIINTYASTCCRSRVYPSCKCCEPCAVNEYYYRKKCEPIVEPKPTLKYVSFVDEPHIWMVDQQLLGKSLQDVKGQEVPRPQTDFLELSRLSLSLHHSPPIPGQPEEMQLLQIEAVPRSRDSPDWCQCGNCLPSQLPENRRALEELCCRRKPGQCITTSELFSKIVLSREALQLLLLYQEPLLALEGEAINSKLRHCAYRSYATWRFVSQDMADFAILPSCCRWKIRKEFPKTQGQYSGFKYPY
Description: Antagonist activity at recombinant rat P2X7 expressed in human 1321N1 cells assessed as inhibition of BzATP-induced calcium flux preincubated for 30 mins followed by BzATP addition measured over 180 secs by FLIPR assay. The assay is classed as cell-based.

For `C[C@@H]1c2nnn(-c3ncccn3)c2CCN1C(=O)c1cccc(C(F)(F)F)c1Cl`, the Ki in assay [1] is 12.9 nM.

Consider `C[C@@H]1c2nnn(-c3cnccn3)c2CCN1C(=O)c1cccc(C(F)(F)F)c1Cl`, for which the IC50 in assay [1] was 3.47 nM; in assay [2], 9.12 nM. For `C[C@@H]1c2nnn(-c3cc(F)ccn3)c2CCN1C(=O)c1cccc(C(F)(F)F)c1Cl` the same measures were 8.32 nM and 12.3 nM.
